Source: BindingDB's records for US9259422

The chains behind the UniProt entries cited, without tags or fusion partners.
UniProt P33535, whole entry: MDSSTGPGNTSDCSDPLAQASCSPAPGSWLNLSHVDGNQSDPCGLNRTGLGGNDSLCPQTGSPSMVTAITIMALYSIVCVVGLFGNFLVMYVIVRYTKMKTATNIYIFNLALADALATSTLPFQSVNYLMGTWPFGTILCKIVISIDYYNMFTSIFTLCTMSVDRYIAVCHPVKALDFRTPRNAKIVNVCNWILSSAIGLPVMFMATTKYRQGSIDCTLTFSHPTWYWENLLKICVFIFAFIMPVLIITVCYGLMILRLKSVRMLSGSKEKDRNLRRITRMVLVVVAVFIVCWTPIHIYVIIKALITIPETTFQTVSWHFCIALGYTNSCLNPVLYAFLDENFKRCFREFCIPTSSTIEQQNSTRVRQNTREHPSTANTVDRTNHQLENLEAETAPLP
UniProt P33533, whole entry: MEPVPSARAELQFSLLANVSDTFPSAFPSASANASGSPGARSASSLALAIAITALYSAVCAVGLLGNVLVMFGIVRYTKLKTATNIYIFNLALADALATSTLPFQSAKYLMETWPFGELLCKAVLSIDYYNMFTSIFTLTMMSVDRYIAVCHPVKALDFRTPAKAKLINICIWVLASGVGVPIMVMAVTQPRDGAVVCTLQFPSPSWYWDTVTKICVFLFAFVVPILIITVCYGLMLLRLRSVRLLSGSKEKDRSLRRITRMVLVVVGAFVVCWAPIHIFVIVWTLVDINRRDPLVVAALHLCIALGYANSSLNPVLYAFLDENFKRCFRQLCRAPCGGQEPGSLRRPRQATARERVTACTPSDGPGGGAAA

Assays:
[1] = target: Mu-type opioid receptor (Rattus norvegicus, UniProt P33535); assay: Ligand Binding Assays; settings: pH 7.4
Protocol: (§1) As Alt et al., 2002. Membranes (20 ug) are incubated in 50 mM Tris-HCl, pH 7.4 with [3H]diprenorphine or [3H]nociceptin in the absence or presence of varying concentrations of test compounds for 60 min in a shaking water bath at 25° C. Nonspecific binding is measured using 10 uM naloxone (MOR, DOR, KOR) or N/OFQ (NOP). Samples are filtered through

[2] = target: Delta-type opioid receptor (Rattus norvegicus, UniProt P33533); assay: Ligand Binding Assays; settings: pH 7.4
Protocol: as §1

CO[C@]12CC[C@@]3(C[C@@H]1[C@](C)(O)c1ccccc1)[C@H]1Cc4ccc(O)c5c4[C@@]3(CCN1CC1CC1)[C@H]2O5
Ki [1]: 0.71 nM | Ki [2]: 1.91 nM
